Results taken from ChEMBL document CHEMBL4017546, “Small-Molecule Inhibitors of the CD40-CD40L Costimulatory Protein-Protein Interaction” (J Med Chem, 2017).

Sequences of proteins named here, by UniProt entry; tags and fusion partners are left off. A change or cut given only in a name is not applied to a line headed by its entry.
UniProt P25942, whole entry, looked up: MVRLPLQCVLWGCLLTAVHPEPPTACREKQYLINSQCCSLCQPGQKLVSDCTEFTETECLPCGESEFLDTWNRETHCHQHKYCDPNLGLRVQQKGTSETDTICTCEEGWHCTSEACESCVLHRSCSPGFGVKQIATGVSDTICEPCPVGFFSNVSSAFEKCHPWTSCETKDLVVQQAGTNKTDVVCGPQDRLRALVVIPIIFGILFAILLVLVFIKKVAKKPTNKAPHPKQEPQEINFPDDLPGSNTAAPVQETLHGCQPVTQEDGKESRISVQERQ
UniProt P29965: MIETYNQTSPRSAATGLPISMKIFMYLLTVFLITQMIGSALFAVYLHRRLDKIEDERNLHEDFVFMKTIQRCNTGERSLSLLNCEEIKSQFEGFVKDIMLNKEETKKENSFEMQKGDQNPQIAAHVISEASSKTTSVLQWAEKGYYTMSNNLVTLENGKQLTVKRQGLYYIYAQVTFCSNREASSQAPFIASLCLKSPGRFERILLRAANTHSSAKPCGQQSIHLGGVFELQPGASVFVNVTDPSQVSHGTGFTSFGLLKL

Experiments:
Homo sapiens = species: Homo sapiens; assay: Selectivity ratio of IC50 for human Fc-conjugated TNF-R/FLAG-tagged biotinylated TNFalpha protein-protein interaction to IC50 for human Fc-conjugated CD40/FLAG-tagged biotinylated CD40L costimulatory protein-protein interaction
Method in brief: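 Cell-free plate binding: TNF-R-Fc and CD40-Fc each coated at 0.3 µg/mL. FLAG-tagged TNF-α or CD40L, each at 0.02 µg/mL, added with graded compound for 1 h in HEPES buffer, pH 7.2. Anti-FLAG HRP/TMB detection at 450 nm. IC50s come from log inhibitor fits.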

CD40-CD40L = CD40-CD40L (Homo sapiens, UniProt P25942+P29965); assay: Ratio of IC50 for human Fc-conjugated CD40/FLAG-tagged biotinylated CD40L costimulatory protein-protein interaction in presence of Triton-X 100 to IC50 for human Fc-conjugated CD40/FLAG-tagged biotinylated CD40L costimulatory protein-protein interaction in absence of Triton-X 100; format: protein assay
Method in brief: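 CD40-Fc (0.3 µg/mL) coated, FLAG-CD40L (0.02 µg/mL) binding, 1 h, anti-FLAG HRP/TMB read at 450 nm. Run with and without the non-ionic detergent Triton X-100 at 0.01% to test for colloidal aggregation. IC50 taken from log inhibitor vs. response fits in each condition.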

Compound	Ratio IC50 (Homo sapiens)	Ratio IC50 (CD40-CD40L)
O=C(Nc1ccc(-c2ccc(C(=O)Nc3ccc(C(=O)O)c4ccccc34)cc2)cc1)c1ccc([N+](=O)[O-])cc1	> 100	1.9
O=C(Nc1ccc(-c2ccc(C(=O)Nc3cccc4cccc(S(=O)(=O)O)c34)cc2)cc1)c1ccc([N+](=O)[O-])cc1	> 100	8
COC(=O)c1ccc(C(=O)Nc2ccc(-c3ccc(C(=O)Nc4cccc5cccc(S(=O)(=O)O)c45)cc3)cc2)cc1	> 100	1.2
